Our source for the Activity values is ChEMBL document CHEMBL4130525, “gem-Dinitroalkyl Benzenes: A Novel Class of IOP-Lowering Agents for the Treatment of Ocular Hypertension” (ACS Med Chem Lett, 2017).

Each structure is given as a SMILES string. The source made the active and inactive calls. The calls are words filed in the database; no cut-off is given here.

Assay [1] deals with Oryctolagus cuniculus. Description: Antiglaucoma activity in hypertonic saline-induced New Zealand albino rabbit transient ocular hypertensive model assessed as IOP lowering efficacy at 1% dose administered topically immediately after hypertonic saline injection measured at 60 mins post dose. Type of assay: functional.
Assay [2] concerns Oryctolagus cuniculus. The assay is described as follows: Antiglaucoma activity in carbomer-induced New Zealand albino rabbit transient ocular hypertensive model assessed as reduction in IOP at 1% dose administered topically measured after 24 hrs. It is filed as functional, organism-based.
Assay [3] relates to Oryctolagus cuniculus. Description: Antiglaucoma activity in hypertonic saline-induced New Zealand albino rabbit transient ocular hypertensive model assessed as IOP lowering efficacy at 1% dose administered topically immediately after hypertonic saline injection measured at 240 mins post dose. Type of assay: functional.
Assay [4] can be described thus: Induction of NO release assessed as nitrite formation at 0.1 mM in phosphate buffer saline at pH 7.4 in presence of 5 mM of L-cysteine measured after 1 hr by Griess assay. It is filed as functional.
Assay [5] can be described thus: Induction of NO release assessed as nitrite formation at 0.1 mM in phosphate buffer saline at pH 7.4 in presence of 5 mM of L-cysteine measured after 6 hrs by Griess assay. It is filed as functional. (The Griess reaction detects nitrite, a stable product of nitric oxide.)
Assay [6] concerns Oryctolagus cuniculus. Description: Antiglaucoma activity in carbomer-induced New Zealand albino rabbit transient ocular hypertensive model assessed as reduction in IOP at 1% dose administered topically everyday for 5 days measured 1 hr post drug instillation. Type of assay: functional, organism-based.
The test system of assay [7] is Thoracic aorta. Description: Vasodilatory activity in denuded Wistar rat thoracic aorta assessed as relaxation of L-phenylephrine-induced contractions of aortic strips at 100 uM relative to control.
The test system of assay [8] is Oryctolagus cuniculus. Description: Antiglaucoma activity in hypertonic saline-induced New Zealand albino rabbit transient ocular hypertensive model assessed as IOP lowering efficacy at 1% dose administered topically immediately after hypertonic saline injection measured at 120 mins post dose. Type of assay: functional.

For the compound `O=[N+]([O-])C(c1ccccc1)[N+](=O)[O-]`, the Activity in assay [1] was -11.7 mmHg; in assay [2] it was “Dose-dependent effect”; in assay [4] it was 3%; in assay [5] it was 30%; in assay [7], -6.5 mmHg; in assay [8], -2.3 mmHg. Further, the outcome in assay [3] and in assay [6] was Active.
